Laboratory results taken from US20230019619A1, “TREATMENT OF A DISEASE OF THE GASTROINTESTINAL TRACT WITH A TLR MODULATOR” (BIORA THERAPEUTICS, INC., priority 2016, published 2023).

System: distal transverse colon
Test: Histology of distal transverse colon, TNBS porcine colitis model
Conditions: Animal 2501, intra-rectal TNBS; exemplary image FIG. 50

trinitrobenzene sulfonic acid
histological section of a distal transverse colon: areas of necrosis and inflammation
